Assay results taken from PubChem BioAssay AID485349 (National Center for Advancing Translational Sciences (NCATS), 2010).
The entries are a selection whose mix differs from that of the whole data set. Some salts or complexes appear as unconnected parts, following the source record. The source made the active and inactive calls. The call rests on the fitted dose curve; in most records, active means well fitted activation curve with a large enough effect; inconclusive means small, poorly fitted or top-dose-only effect; inactive means no such curve, though single readings can be large or run the other way.

assay: qHTS Assay for Identifying a Potential Treatment of Ataxia-Telangiectasia; settings: […] A-T fibroblasts, KAP-1 phosphorylation AlphaLISA, neocarzinostatin DNA damage 30 min before lysis; at 57.5 µM (top of the series); further: % of control where 0% means no effect; nearly all actives have a fitted effect of over 45% in size
From the text: NIH Chemical Genomics Center [NCGC] NIH Molecular Libraries Probe Centers Network [MLPCN] MLPCN Grant: MH089030-01 Assay Submitter (PI): Wei Zheng and Yosef Shiloh Ataxia-telangiectasia (A-T) is a devastating and progressive disease for which, there is no cure. Although A-T is a multisystem disease, it is stereotyped characterized by its neurological symptoms such as truncal ataxia, due to cerebellar cortical degeneration of the Purkinje and granule cells. Other symptoms of A-T are telangiectasias (dilated blood vessels), primary immunodeficiency, marked sensitivity to ionizing radiation (IR), chromosomal instability and predisposition to cancer. The underlying genetic cause of A-T is null mutations in the ATM (A-T mutated) gene. ATM is a nuclear serine/threonine kinase that functions as a master regulator of the cellular responses to double strand breaks (DSBs) in the DNA. Upon activation by DSBs, ATM phosphorylates a plethora of down stream targets, including KAP-1 on […]. KAP-1 phosphorylation occurs shortly in response to DSBs and mediates global chromatin relaxation, which facilitates DSB repair. To screen for small molecules that will compensate for the loss of ATM in cells derived from A-T patients, we monitored KAP-1 phosphorylation as a readout for ATM-like activity using an AlphaLISA assay.
qHTS Assay Protocol: Step,Parameter,Value,Description 1. Cell Plating, 3 ul, 500 cells/well in OPTI-MEM, 1% FBS, 1% Pen/Strep 2. Incubation, 16-24 hr, 37C, 5% CO2, 95% humidity 3. Library compounds, 23 nl, 76.7 - 0.61uM dilution series final concentration 4. Incubation, 60 min, 37C, 5% CO2, 95% humidity 5. Reagent, 1 ul, 1600 ng/ml NCS in PBS + 0.05% BSA + 0.005% Tween 20 6. Incubation, 30 min, 37C, 5% CO2, 95% humidity 7. Reagent, 1 ul, Premixed detection reagents and lysis buffer 8. Reagent, 1 ul, 0.6% Antifoam A 9. Incubation, 6 hr, 25C, 95% humidity 10. Readout, EnVision, EnVision plate reader. AlphaScreen 1536-well protocol Cells were plated using medium-binding white solid-bottom tissue culture treated Kalypsys plates. Multidrop dispense of 3 uL of […] (hTERT immortalized A-T patient fibroblast cells). Detection reagent and lysis buffer was 3.75nM Rab-a-pKAP1 antibody bound to 75 ng/ul AlphaScreen SA donor bead, 3.75 nM Biot-M-a-KAP1 antibody bound to AlphaLISA protein A acceptor bead, 0.5x protease inhibitor cocktail and 0.25x PerkinElmer lysis buffer. EnVision protocol for 1536-well AlphaScreen read (30ms excitation, 100ms read), about 10 min/plate.

Structure (SMILES) | activation
CCN1CCC(Nc2cccc(F)c2)CC1 | inactive: -7.3%
CN(C)c1ccc(C(=O)NCC2(N3CCCCC3)CCCCC2)cc1 | inactive: 3.15%
O=C(NCC1(N2CCCCC2)CCCCC1)c1ccco1 | inactive: -1.53%
COc1cc(OC)cc(C(=O)NCC2(N3CCCCC3)CCCCC2)c1 | inactive: 14.9%
Fc1ccccc1NC1CCN(Cc2ccccc2)CC1 | inactive: -3.12%
Cc1ccc(C(=O)NCC2(N3CCCCC3)CCCCC2)o1 | inactive: 0.846%
CCC(CO)(C(=O)OC1CN2CCC1CC2)c1ccccc1 (configuration not stated) | inactive: 2.3%
COc1cccc(C(=O)N(c2cc(C)cc(C)c2)C2CCN(C(=O)OC(C)(C)C)CC2)c1 | inactive: -10%
COc1cc(OC)cc(C(=O)NCC2(N3CCOCC3)CCCCC2)c1 | inactive: 1.49%
CCCOc1ccc(C)cc1CN(CCCl)CCCl | inactive: 2.27%
CN1CCC(Nc2ccc(Cl)cc2)CC1 | inactive: -5.7%
CN1CCC(Nc2ccc(F)c(Cl)c2)CC1 | inactive: 5.2%
CCOc1ncccc1C(=O)NCC1(N2CCOCC2)CCCCC1 | inactive: -1.19%
CCCOc1ccc(C(=O)NCC2(N(C)C)CCCCC2)cc1 | inactive: -2.92%
O=C(O)C1(Nc2ccccc2)CCN(Cc2ccccc2)CC1 | inactive: -10.5%
CC(C)(C)OC(=O)N1CCC(Nc2ccccc2)CC1 | inactive: -0.871%
N/C(=N\O)c1c(N)no[n+]1[O-] | inactive: 5.25%
CCOC(=O)N1CCC(Nc2ccc(C)cc2)CC1 | inactive: -9.87%
O=C(O)c1cccc(Nc2c([N+](=O)[O-])cc([N+](=O)[O-])cc2[N+](=O)[O-])c1 | inactive: 0%
CCc1cc(C(=O)NCC2(N3CCCCC3)CCCCC2)sc1C | inactive: 2.56%
O=C(OC1CN2CCC1CC2)C1c2ccccc2C=Cc2ccccc21 (configuration not stated) | inactive: 17.3%
O=C(NCC1(N2CCOCC2)CCCCC1)c1cc(Br)ccc1Cl | inactive: -2.23%
COc1cc(C(=O)NCC2(N3CCOCC3)CCCCC2)cc(OC)c1C | inactive: -7.78%
COc1ccc(C(=O)NCC2(N3CCOCC3)CCCCC2)cc1OC | inactive: 1.42%

Structure (SMILES) | activation
CCCN1CCC(Nc2cc(OC)cc(OC)c2)CC1 | inactive: 1.26%
c1ccc(CN2CCC(Nc3ccccc3)CC2)cc1 | inactive: 4.12%
CN(C)C1(CNC(=O)c2cccc(C#N)c2)CCCCC1 | inactive: -5.26%
CC(C)(C)OC(=O)N1CCC(N(C(=O)c2ccccc2)c2ccc(Cl)cc2)CC1 | inactive: -4.35%
N#Cc1ccc(C(=O)NCC2(N3CCCCC3)CCCCC2)cc1 | inactive: -3.65%
CCOC(=O)C(CC)C1=NC(C)(C)Cc2ccccc21.O=[N+]([O-])c1cc([N+](=O)[O-])c(O)c([N+](=O)[O-])c1 (configuration not stated) | inactive: -1.04%
O=C(NCC1(N2CCCCC2)CCCCC1)c1cccc(C(F)(F)F)c1 | inactive: 1.67%
O=[N+]([O-])c1cc([N+](=O)[O-])c(NCC2CCS(=O)(=O)C2)c([N+](=O)[O-])c1 (configuration not stated) | inactive: 11.3%
CC(C)c1ccc(C(=O)NCC2(N3CCOCC3)CCCCC2)cc1 | inactive: -0.689%
COc1ccc(NC2CCN(C(=O)OC(C)(C)C)CC2)cc1 | inactive: -1.38%
CN1CCN(CCOC(=O)C(O)(c2ccccc2)c2ccccc2)CC1 | inactive: 2.09%
COc1cc(C(=O)NCC2(N3CCCCC3)CCCCC2)ccc1OC(F)F | inactive: -4.42%
O=C(NCC1(N2CCCCC2)CCCCC1)c1ccc(OC(F)F)cc1 | inactive: -2.93%
O=C(NCC1(N2CCCCC2)CCCCC1)c1cccc([N+](=O)[O-])c1 | inactive: 1.05%
CSc1ccc(C(=O)NCC2(N3CCOCC3)CCCCC2)cc1 | inactive: 1.06%
N#CC1(Nc2ccccc2)CCN(CCc2ccccc2)CC1 | inactive: 3.07%
CCN1CCC(Nc2ccc(Cl)cc2)CC1 | inactive: 0.889%
COc1ccc2c(c1O)-c1c(O)c(OC)cc3c1[C@H](C2)[N+](C)(C)CC3.O=[N+]([O-])c1cc([N+](=O)[O-])c([O-])c([N+](=O)[O-])c1[O-] | inactive: -16.1%
O=C(NCC1(N2CCCCC2)CCCCC1)c1cncc(Br)c1 | inactive: 3.74%
O=C(OC1CN2CCC1CC2)c1ccc([N+](=O)[O-])cc1 (configuration not stated) | inactive: 0.549%
CCCOc1ccc(C(=O)NCC2(N(C)C)CCCCC2)cc1OC | inactive: -2.27%
CN(C)c1cccc(C(=O)NCC2(N3CCCCC3)CCCCC2)c1 | inactive: 4.36%
O=[N+]([O-])c1cc([N+](=O)[O-])c(OC2CCCCC2O)c([N+](=O)[O-])c1 (configuration not stated) | inactive: -0.684%
COc1ccc(CN(CCCl)CCCl)cc1Cl | inactive: 8.66%

Structure (SMILES) | activation
CC(C)c1ccc(NC2CCN(C(=O)OC(C)(C)C)CC2)cc1 | inactive: -4.68%
O=C(NCC1(N2CCOCC2)CCCCC1)c1cc(F)c(F)cc1Cl | inactive: 16.5%
COc1cc(OC)c(C(=O)NCC2(N(C)C)CCCCC2)cc1OC | inactive: -2.86%
Cc1cc(C)cc(N(C(=O)c2ccccc2)C2CCN(C(=O)OC(C)(C)C)CC2)c1 | inactive: -9.09%
O=C(NCC1(N2CCCCC2)CCCCC1)c1ccc(Cl)nc1 | inactive: -4.38%
CCOC(=O)N1CCC(Nc2ccc(OC)cc2)CC1 | inactive: 2.92%
COc1ccc(Cl)cc1C(=O)NCC1(N2CCOCC2)CCCCC1 | inactive: 8.32%
O=C(NCC1(N2CCCCC2)CCCCC1)c1ccc(Cl)s1 | inactive: -0.032%
N#CC1(Nc2ccccc2)CCN(Cc2ccccc2)CC1 | inactive: 1.94%
O=C(OC1CN2CCC1CC2)C1c2ccccc2Oc2ccccc21 (configuration not stated) | inactive: 3.2%
O=C(NCC1(N2CCCCC2)CCCCC1)c1cccs1 | inactive: 11.8%
O=C(NCC1(N2CCCCC2)CCCCC1)c1ccc(=O)[nH]c1 | inactive: 6.56%
CC(C)(C)OC(=O)N1CCC(N(C(=O)c2ccccc2)c2ccc(F)cc2)CC1 | inactive: 6.67%
COc1ccc(C(=O)NCC2(N3CCCCC3)CCCCC2)c(OC)c1OC | inactive: 13.3%
COc1ccc(C(=O)NCC2(N3CCCCC3)CCCCC2)cc1 | inactive: -3.53%
CSc1ccccc1C(=O)NCC1(N2CCCCC2)CCCCC1 | inactive: 1.61%
Cc1ccc(OCC(C)C)c(CN(CCCl)CCCl)c1 | inactive: 5.91%
CCOC(=O)N1CCC(Nc2cccc(C)c2)CC1 | inactive: -5.99%
COc1cc(C(=O)NCC2(N(C)C)CCCCC2)ccc1OC(F)F | inactive: -6.82%
CCOc1ccc(C)cc1CN(CCCl)CCCl | inactive: -0.283%
CCOC(=O)N1CCC(Nc2ccc(F)cc2)CC1 | inactive: -12.2%
COc1ccc(NC2CCN(CCc3ccccc3)CC2)c(OC)c1 | inactive: -6.71%
CCCCOc1ccc(C(=O)NCC2(N3CCOCC3)CCCCC2)cc1 | inactive: 0.986%
O=C(NCC1(N2CCCCC2)CCCCC1)c1ccc(F)cc1 | inactive: -8.23%
